In assay [1] the target is Glucagon receptor (Rattus norvegicus) (UniProt P30082). As to the kind of experiment: Percent stimulation of cAMP production over basal. More on the design: concentration or dose not given beside the values. In kind it is functional. In general terms: Cyclic AMP is a second messenger, typically raised through Gs and lowered through Gi signalling.
The target is the same in assay [2]. As to the kind of experiment: Relative binding potency expressed as receptor binding IC50 for glucagon by receptor binding IC50 for compound.

Chains of the proteins cited; added tags and fusions are not shown.
UniProt P30082, whole entry: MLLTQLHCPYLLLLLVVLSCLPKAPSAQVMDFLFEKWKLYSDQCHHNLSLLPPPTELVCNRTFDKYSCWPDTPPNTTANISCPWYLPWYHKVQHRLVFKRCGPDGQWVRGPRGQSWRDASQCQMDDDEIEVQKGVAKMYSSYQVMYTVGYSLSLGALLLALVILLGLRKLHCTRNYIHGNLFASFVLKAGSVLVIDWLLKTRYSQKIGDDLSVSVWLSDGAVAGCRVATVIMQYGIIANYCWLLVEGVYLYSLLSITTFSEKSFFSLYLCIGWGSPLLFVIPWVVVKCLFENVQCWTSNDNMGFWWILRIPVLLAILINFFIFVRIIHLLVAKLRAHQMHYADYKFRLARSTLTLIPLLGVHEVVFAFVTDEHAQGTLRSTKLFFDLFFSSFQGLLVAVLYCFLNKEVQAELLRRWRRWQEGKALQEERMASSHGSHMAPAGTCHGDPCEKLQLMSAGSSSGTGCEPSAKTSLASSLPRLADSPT

Regarding GLUCAGON, the Activity in assay [1] and in assay [2] was 100% throughout.
